{"sequences": {"note": "Amino acid sequences for entries named in this document (tags omitted). Residues count along the entry.", "UniProt O60894, 27-148": "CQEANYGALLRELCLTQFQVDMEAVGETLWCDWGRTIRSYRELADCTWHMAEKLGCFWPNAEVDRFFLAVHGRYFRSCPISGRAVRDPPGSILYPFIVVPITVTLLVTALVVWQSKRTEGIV", "UniProt Q16602, 23-461": "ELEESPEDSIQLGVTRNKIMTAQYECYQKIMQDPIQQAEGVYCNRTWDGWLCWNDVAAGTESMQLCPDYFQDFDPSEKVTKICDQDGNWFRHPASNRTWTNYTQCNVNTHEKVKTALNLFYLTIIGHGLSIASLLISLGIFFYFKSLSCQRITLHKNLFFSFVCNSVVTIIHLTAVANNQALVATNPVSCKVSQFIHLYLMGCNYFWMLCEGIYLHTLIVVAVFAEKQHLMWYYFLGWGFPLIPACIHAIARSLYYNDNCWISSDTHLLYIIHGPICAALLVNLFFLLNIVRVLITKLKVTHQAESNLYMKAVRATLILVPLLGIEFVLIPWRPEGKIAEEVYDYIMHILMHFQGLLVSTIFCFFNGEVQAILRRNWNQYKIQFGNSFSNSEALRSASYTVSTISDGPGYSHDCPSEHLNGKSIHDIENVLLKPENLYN"}, "source": "patent US20200353088A1", "about": "“PEPTIDE CONJUGATE CGRP RECEPTOR ANTAGONISTS AND METHODS OF PREPARATION AND USES THEREOF” (Auckland UniServices Limited, priority 2017, published 2020)", "molecules": {"B1": {"name": "K35C(S-Pam) CGRP8-37 A6 (peptide)", "peptide": "VTHRLAGLLSRSGGVVKNNFVPTNVGSCAF", "modifications": "Cys 35 (CGRP numbering; residue 28 of the entry) S-conjugated to 2-(palmitoyloxy)ethyl (S-Pam); C-terminal amide"}}, "key": {"[1]": {"biological_target": "T1, CGRP (CLR/RAMP1) receptor (Homo sapiens, UniProt O60894+Q16602)", "T1 construct": "expressed in transfected cells; host or cells: Cos 7 (African green monkey kidney), transient transfection with polyethylenimine", "assay": "Antagonism of CGRP-induced cAMP accumulation in Cos 7 cells transfected with CLR/RAMP1", "format": "cell-based", "conditions": "for A2 (antilog of the negative pA2), CGRP (CLR/RAMP1): transfected Cos-7 cells, cAMP", "protocol": "1. Antagonism of CGRP-Induced cAMP Accumulation in Transfected CGRP Receptor Expressing Cells\nSimian vacuolating virus 40 (SV40) transformed African green monkey kidney (Cos 7) cells were transiently transfected with calcitonin receptor-like receptor (CLR) or calcitonin receptor (CTR) together with receptor activity-modifying protein 1 (RAMP1) to form CGRP or AMY1(a) receptors.\nOn the day of experimentation, media was replaced with 50 μl DMEM containing 1 mM isobutylmethylxanthine and 0.1% bovine serum albumin for 30 min. All peptides were diluted in assay medium and after the 30 min incubation, 25 μl antagonists were added, followed immediately by 25 μl human alpha CGRP (hαCGRP), giving a total assay volume of 100 μl. Once human alpha CGRP was added, the cells were incubated at 37° C. for 15 minutes. The media was then aspirated from the wells and reactions terminated with ice-cold absolute ethanol. Ethanol was evaporated to dryness and cAMP was quantified using a commercially-available assay (LANCE Perkin Elmer).\n3. Calculation of Antagonist Potency Values\nData were analysed using Graphpad Prism 7. Antagonist pKB or pA2 values were obtained using Global Schild analysis. […] Where a single concentration of antagonist was used, pA2 values are used to describe antagonist potency."}, "[2]": {"biological_target": "T1, CGRP (CLR/RAMP1) receptor", "assay": "cAMP assay with antagonist pre-incubation, with or without wash step, CLR/RAMP1 transfected Cos 7 cells", "format": "cell-based", "protocol": "Cos 7 cells were cultured in Dulbecco's Modified Eagle Medium (DMEM) supplemented with 8% heat inactivated fetal bovine serum and kept in a 37° C. humidified 95% air/5% CO2 incubator. […] In a different specific experimental paradigm, media was replaced with DMEM containing 1 mM isobutylmethylxanthine and 0.1% bovine serum albumin for 30 min. After this period, 25 μl of antagonist or media was added for 15 minutes at 37° C. as a pre-incubation period. After pre-incubation, the antagonist or media were aspirated from some wells, washed once with phosphate-buffered saline and replaced with 75 μl new media. The other wells with antagonist were not washed. […] Once human alpha CGRP was added, the cells were incubated at 37° C. for 15 minutes. The media was then aspirated from the wells and reactions terminated with ice-cold absolute ethanol. […] Calculation of Antagonist Potency Values Data were analysed using Graphpad Prism 7. Antagonist pKB or pA2 values were obtained using Global Schild analysis. […] Where a single concentration of antagonist was used, pA2 values are used to describe antagonist potency."}, "[3]": {"biological_target": "human CGRP receptor (CLR/RAMP1), transiently transfected in Cos 7 cells (human, UniProt Q16602 23-461; O60894 27-148)", "assay": "cell-based or functional assay"}}, "data": [{"molecule": "K35C(S-Pam) CGRP8-37 [A6]", "values": [{"measurement": "Selectivity (fold-difference CGRP vs. AMY1)", "setting": "[1]; CGRP (CLR/RAMP1) vs. AMY1 (CTR/RAMP1), Cos-7 cells", "result": 12, "unit": "fold"}, {"measurement": "A2 (antilog of the negative pA2), CGRP (CLR/RAMP1)", "setting": "[1]", "result": "(A2: 87 nM)"}, {"measurement": "A2, CGRP (CLR/RAMP1), Without wash", "setting": "[2]; 15 min antagonist pre-incubation, not washed", "result": "(A2: 229 nM)"}, {"measurement": "A2, CGRP (CLR/RAMP1), With wash", "setting": "[2]; 15 min antagonist pre-incubation, washed once with PBS", "result": ">3000", "unit": "nM"}, {"measurement": "Fold change reduction in pA2 with wash, CGRP (CLR/RAMP1)", "setting": "[2]; calculated from Table 2, with wash vs. without wash", "result": ">13", "unit": "fold"}]}, {"molecule": "R11C(S-Pam) α-CGRP8-37 [A9]", "values": [{"measurement": "A2 (antilog of the negative pA2), CGRP (CLR/RAMP1)", "setting": "[1]", "result": "(A2: 18 nM)"}]}, {"molecule": "R11C(S-Pam), K24C(S-Pam) α-CGRP8-37 [A11]", "values": [{"measurement": "A2 (antilog of the negative pA2), CGRP (CLR/RAMP1)", "setting": "[1]", "result": "(A2: >100 nM)"}]}, {"molecule": "V8C(S-Pam)O-CGRP8-37 [C3]", "values": [{"measurement": "A2 (antilog of the negative pA2), CGRP (CLR/RAMP1)", "setting": "[1]", "result": "(A2: 0.21 nM)"}]}, {"molecule": "B1", "values": [{"measurement": "A2 (antilog of the negative pA2; cAMP assay, Cos 7)", "setting": "[3]", "result": 87, "unit": "nM"}, {"measurement": "antagonist potency pA2 (cAMP assay, Cos 7)", "setting": "[3]", "result": 7.06}]}]}
